Data as given in ChEMBL document CHEMBL3259543, “Design and synthesis of highly potent HIV-1 protease inhibitors with novel isosorbide-derived P2 ligands” (Bioorg Med Chem Lett, 2014).

Target: Protease (Human immunodeficiency virus 1, UniProt Q9YQ12)
Assay: Inhibition of purified HIV-1 protease using [Arg-Glu(EDANS)-Ser-Gin-Asn-Tyr-Ile-Val-Gin-Lys(dabcyl)-Arg) as fluorogenic substrate by fluorescence assay
Summary of the method: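 Wild-type HIV-1 protease, cloned, expressed in Escherichia coli and purified. Inhibitors dissolved in DMSO and diluted. Incubation at 30 °C in 0.1 M sodium acetate, 1 M NaCl, 1 mM DTT, 1 mM EDTA, 3% DMSO, pH 5.0, with the EDANS/dabcyl fluorogenic peptide substrate. Cleavage read by fluorescence in a microplate reader.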

pIC50: > 8.00
SMILES: CC(C)(C)NC(=O)[C@@H]1CN(Cc2cccnc2)CCN1C[C@@H](O)C[C@@H](Cc1ccccc1)C(=O)N[C@H]1c2ccccc2C[C@H]1O [INDINAVIR]

pIC50: −log10 of the molar value.
